In patent US20180051056A1, “SYNTHETIC MINIATURE PROTEIN SCAFFOLDS, PHARMACEUTICAL COMPOSITIONS AND METHODS OF USING SAME” (priority 2016, published 2018):

Conditions: temperature dependence of ellipticity at 228 nm; 100 μM, 1 mm path length, 10 mM PBS buffer, pH 7.5

thermal stability of PPII-helical structure	Substance
slightly enhance the thermal stability	Arg Cys Arg Val Arg Thr Ser Arg D-Pro Gly Tyr Asn Gly Xaa Trp Ser Glu Trp Cys, wherein Xaa is N-methoxyethyl glycine [cTp_XE]
slightly enhance the thermal stability	Arg Cys Arg Val Arg Thr Ser Arg D-Pro Gly Tyr Asn Gly Xaa Trp Ser Pro Trp Cys, wherein Xaa is N-methoxyethyl glycine [cTp_XP]
